This passage reports inhibition results from PubChem BioAssay AID504329 (Southern Research Specialized Biocontainment Screening …, 2011).

Each structure is given as a SMILES string. Only a part is listed here, and it is no random draw. Results with a measured potency or affinity are listed apart. Calls of active or inactive are those of the source. Rule as the data show it: inconclusive = inhibition above about 27% without an active follow-up result; inactive = below that.

This assay is described as follows: NS1A inhibition, H1N1 influenza, cell based functional assay (AID 504329). The settings on record: percent inhibition, at 12.5 µM, active compounds read high.
A word on the inhibition: it is the change of the read-out against control, counted positive when it falls. On to `CCC(=O)N(c1ccccc1)C1(COC)CCN(CCn2nnn(CC)c2=O)CC1`, for which the inhibition was inactive: -3.66%.

`CCC(=O)N(c1ccccc1)C1(COC)CCN(CCc2cccs2)CC1`: the inhibition was inactive: -0.96%.
